Measured values published in PubChem BioAssay (NCI).
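Values below derive from 48-hour exposures of cells grown in 96-well plates, with endpoints linearly interpolated between the two concentrations bracketing the appropriate inhibition level. GI50 = concentration required for 50% inhibition of growth. At the TGI there is no net growth.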

Columns and labels:
Test in all cases: growth of human tumour cells (NCI), 48 h
OVCAR-3 ovarian = test system: OVCAR-3 ovarian
HS 578T breast = test system: HS 578T breast
HT29 colon = test system: HT29 colon
K-562 leukemia = test system: K-562 leukemia
LOX IMVI melanoma = test system: LOX IMVI melanoma
MDA-MB-231 breast = test system: MDA-MB-231 breast
HCT-15 colon = test system: HCT-15 colon
SNB-75 CNS = test system: SNB-75 CNS
RPMI-8226 leukemia = test system: RPMI-8226 leukemia
IGROV1 ovarian = test system: IGROV1 ovarian
COLO 205 colon = test system: COLO 205 colon
A498 renal = test system: A498 renal
UACC-62 melanoma = test system: UACC-62 melanoma
T-47D breast = test system: T-47D breast
UACC-257 melanoma = test system: UACC-257 melanoma
OVCAR-4 ovarian = test system: OVCAR-4 ovarian
OVCAR-5 ovarian = test system: OVCAR-5 ovarian
M14 melanoma = test system: M14 melanoma
SK-MEL-5 melanoma = test system: SK-MEL-5 melanoma
HOP-62 NSCLC = test system: HOP-62 NSCLC
MOLT-4 leukemia = test system: MOLT-4 leukemia
MCF7 breast = test system: MCF7 breast
HL-60(TB) leukemia = test system: HL-60(TB) leukemia
PC-3 prostate = test system: PC-3 prostate
MALME-3M melanoma = test system: MALME-3M melanoma
CCRF-CEM leukemia = test system: CCRF-CEM leukemia
UO-31 renal = test system: UO-31 renal
RXF 393 renal = test system: RXF 393 renal
DU-145 prostate = test system: DU-145 prostate
SNB-19 CNS = test system: SNB-19 CNS
SW-620 colon = test system: SW-620 colon
MDA-MB-435 = test system: MDA-MB-435
KM12 colon = test system: KM12 colon
SF-295 CNS = test system: SF-295 CNS
NCI/ADR-RES ovarian = test system: NCI/ADR-RES ovarian
CAKI-1 renal = test system: CAKI-1 renal
SK-MEL-28 melanoma = test system: SK-MEL-28 melanoma
HOP-92 NSCLC = test system: HOP-92 NSCLC
NCI-H460 lung = test system: NCI-H460 lung
TK-10 renal = test system: TK-10 renal
U251 CNS = test system: U251 CNS
NCI-H226 lung = test system: NCI-H226 lung
EKVX NSCLC = test system: EKVX NSCLC
OVCAR-8 ovarian = test system: OVCAR-8 ovarian
SK-OV-3 ovarian = test system: SK-OV-3 ovarian
SN12C renal = test system: SN12C renal
NCI-H23 lung = test system: NCI-H23 lung
NCI-H322M lung = test system: NCI-H322M lung
SF-268 CNS = test system: SF-268 CNS
SK-MEL-2 melanoma = test system: SK-MEL-2 melanoma
HCT-116 colon = test system: HCT-116 colon
ACHN renal = test system: ACHN renal
786-0 renal = test system: 786-0 renal
HCC-2998 colon = test system: HCC-2998 colon
A549 NSCLC = test system: A549 NSCLC
NCI-H522 lung = test system: NCI-H522 lung
BT-549 breast = test system: BT-549 breast
SF-539 CNS = test system: SF-539 CNS

`O=[N+]([O-])c1ccc(Nc2ccc(Oc3ccc([N+](=O)[O-])cc3[N+](=O)[O-])cc2)c([N+](=O)[O-])c1` gave a GI50 (OVCAR-3 ovarian) of 15.9 µM, a TGI (OVCAR-3 ovarian) of 37.4 µM and a GI50 (HS 578T breast) of 9.91 µM. The TGI (HS 578T breast) was 40.9 µM, the GI50 (HT29 colon) was 82.1 µM and the TGI (HT29 colon) was > 100 µM. For the same molecule, the GI50 (K-562 leukemia) was 5.52 µM, the TGI (K-562 leukemia) was > 100 µM and the GI50 (LOX IMVI melanoma) was 20.3 µM. For the same molecule, the TGI (LOX IMVI melanoma) was > 100 µM, the GI50 (MDA-MB-231 breast) was 16.1 µM and the TGI (MDA-MB-231 breast) was 65.7 µM. For the same molecule, the GI50 (HCT-15 colon) was 61.3 µM, the TGI (HCT-15 colon) was > 100 µM and the GI50 (SNB-75 CNS) was 11.7 µM. For the same molecule, the TGI (SNB-75 CNS) was 33.4 µM, the GI50 (RPMI-8226 leukemia) was 7.6 µM and the TGI (RPMI-8226 leukemia) was > 100 µM. For the same molecule, the GI50 (IGROV1 ovarian) was 21 µM, the TGI (IGROV1 ovarian) was > 100 µM and the GI50 (COLO 205 colon) was 63.8 µM. The TGI (COLO 205 colon) was > 100 µM, the GI50 (A498 renal) was 16 µM and the TGI (A498 renal) was 58.8 µM. For the same molecule, the GI50 (UACC-62 melanoma) was 13 µM, the TGI (UACC-62 melanoma) was 37.9 µM and the GI50 (T-47D breast) was 17.2 µM. The TGI (T-47D breast) was > 100 µM, the GI50 (UACC-257 melanoma) was 21.5 µM and the TGI (UACC-257 melanoma) was > 100 µM. It also gave a GI50 (OVCAR-4 ovarian) of 10.6 µM, a TGI (OVCAR-4 ovarian) of 30.7 µM and a GI50 (OVCAR-5 ovarian) of 49.5 µM. For the same molecule, the TGI (OVCAR-5 ovarian) was > 100 µM, the GI50 (M14 melanoma) was 35.1 µM and the TGI (M14 melanoma) was > 100 µM. For the same molecule, the GI50 (SK-MEL-5 melanoma) was 21.6 µM, the TGI (SK-MEL-5 melanoma) was > 100 µM and the GI50 (HOP-62 NSCLC) was 13.6 µM. The TGI (HOP-62 NSCLC) was 31.9 µM, the GI50 (MOLT-4 leukemia) was > 100 µM and the TGI (MOLT-4 leukemia) was > 100 µM. For the same molecule, the GI50 (MCF7 breast) was 23 µM, the TGI (MCF7 breast) was > 100 µM and the GI50 (HL-60(TB) leukemia) was > 100 µM. For the same molecule, the TGI (HL-60(TB) leukemia) was > 100 µM, the GI50 (PC-3 prostate) was 13.2 µM and the TGI (PC-3 prostate) was 37.8 µM. For the same molecule, the GI50 (MALME-3M melanoma) was 15 µM, the TGI (MALME-3M melanoma) was 56.5 µM and the GI50 (CCRF-CEM leukemia) was > 100 µM. The TGI (CCRF-CEM leukemia) was > 100 µM, the GI50 (UO-31 renal) was 3.57 µM and the TGI (UO-31 renal) was 57.3 µM. For the same molecule, the GI50 (RXF 393 renal) was 6.89 µM, the TGI (RXF 393 renal) was 30 µM and the GI50 (DU-145 prostate) was 16.8 µM. The TGI (DU-145 prostate) was 48.7 µM, the GI50 (SNB-19 CNS) was 24 µM and the TGI (SNB-19 CNS) was 91.5 µM. For the same molecule, the GI50 (SW-620 colon) was 18.1 µM, the TGI (SW-620 colon) was > 100 µM and the GI50 (MDA-MB-435) was 10.8 µM. For the same molecule, the TGI (MDA-MB-435) was > 100 µM, the GI50 (KM12 colon) was 18.9 µM and the TGI (KM12 colon) was > 100 µM. The GI50 (SF-295 CNS) was 16.3 µM, the TGI (SF-295 CNS) was 42.8 µM and the GI50 (NCI/ADR-RES ovarian) was 15.3 µM. For the same molecule, the TGI (NCI/ADR-RES ovarian) was > 100 µM, the GI50 (CAKI-1 renal) was 24 µM and the TGI (CAKI-1 renal) was > 100 µM. For the same molecule, the GI50 (SK-MEL-28 melanoma) was 19.1 µM, the TGI (SK-MEL-28 melanoma) was 57.8 µM and the GI50 (HOP-92 NSCLC) was 10.7 µM. For the same molecule, the TGI (HOP-92 NSCLC) was 32.4 µM, the GI50 (NCI-H460 lung) was 40.5 µM and the TGI (NCI-H460 lung) was > 100 µM. It also gave a GI50 (TK-10 renal) of 17.8 µM, a TGI (TK-10 renal) of 42.2 µM and a GI50 (U251 CNS) of 24.3 µM. For the same molecule, the TGI (U251 CNS) was > 100 µM, the GI50 (NCI-H226 lung) was 17 µM and the TGI (NCI-H226 lung) was 49.5 µM. For the same molecule, the GI50 (EKVX NSCLC) was 30.5 µM, the TGI (EKVX NSCLC) was > 100 µM and the GI50 (OVCAR-8 ovarian) was 16.2 µM. It also gave a TGI (OVCAR-8 ovarian) of 88.9 µM, a GI50 (SK-OV-3 ovarian) of 12.6 µM and a TGI (SK-OV-3 ovarian) of 41.6 µM. For the same molecule, the GI50 (SN12C renal) was 22.9 µM, the TGI (SN12C renal) was > 100 µM and the GI50 (NCI-H23 lung) was 20.3 µM. The TGI (NCI-H23 lung) was > 100 µM, the GI50 (NCI-H322M lung) was 30.2 µM and the TGI (NCI-H322M lung) was > 100 µM. It also gave a GI50 (SF-268 CNS) of 13.2 µM, a TGI (SF-268 CNS) of 37.9 µM and a GI50 (SK-MEL-2 melanoma) of 15.2 µM. The TGI (SK-MEL-2 melanoma) was 47.2 µM, the GI50 (HCT-116 colon) was 28.1 µM and the TGI (HCT-116 colon) was > 100 µM. It also gave a GI50 (ACHN renal) of 16 µM, a TGI (ACHN renal) of 95.1 µM and a GI50 (786-0 renal) of 35.4 µM. For the same molecule, the TGI (786-0 renal) was > 100 µM, the GI50 (HCC-2998 colon) was 53.8 µM and the TGI (HCC-2998 colon) was > 100 µM. For the same molecule, the GI50 (A549 NSCLC) was 24 µM, the TGI (A549 NSCLC) was > 100 µM and the GI50 (NCI-H522 lung) was 12.4 µM. The TGI (NCI-H522 lung) was > 100 µM, the GI50 (BT-549 breast) was 18.5 µM and the TGI (BT-549 breast) was 82.4 µM. The GI50 (SF-539 CNS) was 14.8 µM and the TGI (SF-539 CNS) was 37.4 µM.
